In one assay the target is human kallikrein 7 (Homo sapiens, UniProt P49862). In words: Kallikrein-7 inhibitory activity in vitro (fluorescence-quenched substrate). The note with it: read-out: hKallikrein7 IC 50; Table 11. Format: biochemical.
A further assay deals with Crl:NMRI mice. In words: Anti-inflammatory activity in murine model of allergic contact dermatitis (ACD), oxazolone. The protocol: Method: Crl:NMRI mice were sensitized on the shaved abdomen with 50 μl of 2% oxazolone on day 1 and challenged with 10 μl oxazolone on the inner surface of the right ear on day 8. The unchallenged left ears served as normal controls and dermatitis was evaluated from the difference in auricular weight (taken as a measure of inflammatory swelling) on day 9. The animals were treated topically with 10 μl test compound or the solvent only 30 min after the challenge. The efficacy of the treatment was calculated as the percentage inhibition of inflammatory auricular swelling relative to animals treated with the vehicle alone.

Protein sequences, listed by entry. Tags and fused reporters are not part of them. Residues count along the entry.
UniProt P49862, 30-253 limits assumed: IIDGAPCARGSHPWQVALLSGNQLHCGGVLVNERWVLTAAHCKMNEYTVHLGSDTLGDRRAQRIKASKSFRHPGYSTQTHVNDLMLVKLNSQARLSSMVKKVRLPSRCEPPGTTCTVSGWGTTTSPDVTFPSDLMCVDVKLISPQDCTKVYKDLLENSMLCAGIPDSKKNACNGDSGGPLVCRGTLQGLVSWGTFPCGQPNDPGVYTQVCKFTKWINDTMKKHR
UniProt P08246, 30-267 limits assumed: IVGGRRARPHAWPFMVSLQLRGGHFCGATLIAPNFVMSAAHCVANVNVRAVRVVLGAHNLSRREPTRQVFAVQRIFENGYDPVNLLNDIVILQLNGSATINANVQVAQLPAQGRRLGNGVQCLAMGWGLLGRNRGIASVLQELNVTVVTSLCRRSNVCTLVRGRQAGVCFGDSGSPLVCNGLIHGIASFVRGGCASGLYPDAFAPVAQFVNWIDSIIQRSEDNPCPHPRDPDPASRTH

Assay [1] deals with Human neutrophil elastase (Homo sapiens, UniProt P08246). In words: HNE inhibitory activity in vitro (fluorescence-quenched substrate). Format: biochemical. The following applies: read-out: human neutrophile elastase IC 50; Table 11. The protocol:
Human neutrophil elastase (cat. no. SE563) is purchased from Elastin Products Company, Inc. (EPC, Owensville, USA). The dry powder (purity >95% stated by the supplier) was dissolved in 20 mM sodium acetate buffer, pH 5.0, 50% (v/v) glycerol, and frozen at −80° C. in aliquots.
The fluorescence-quenched substrate (DABCYL-Ser-Glu-Val^Asn-Leu-Asp-Ala-Glu-Phe-EDANS, where ^ indicates the scissile bond, identified by MS analysis) was purchased from Bachem AG (Bubendorf, Switzerland), and kept as a 5 mM stock solution in DMSO at −20° C. All other chemicals were of analytical grade.
Enzymatic reactions were conducted in 100 mM Tris/HCl buffer at pH 7.5, containing 500 mM NaCl, and 0.05% (w/v) CHAPS.
All protein and peptide containing solutions are handled in siliconized tubes (Life Systems Design, Merenschwand, Switzerland).
The compound solutions as well as the enzyme and the substrate solutions are transferred to the 384-well plates (black Cliniplate; cat. no. 95040020 Labsystems Oy, Finland) by means of a CyBi-Well 96-channel pipettor (CyBio AG, Jena, Germany).
For fluorescence intensity (FI) measurements an Ultra Evolution reader (TECAN, Maennedorf, Switzerland) is used. The instrument is equipped with a combination of a 350 nm (20 nm bandwidth) and a 500 nm (25 nm bandwidth) bandpass filter for fluorescence excitation and emission acquisition, respectively. […]

Where [2] appears, read: Table 14, concentration of test compound 10 mM.
[3] abbreviates: Table 14, concentration of test compound 30 mM.

Two molecules from patent US9127044B2, “Cyclic depsipeptides” (NOVARTIS AG, priority 2007, dated 2015) can be followed below.

Each structure is given as a SMILES string.

For `CCC(C)[C@@H]1NC(=O)[C@H](Cc2ccc(O)cc2)N(C)C(=O)[C@H](C(C)CC)N2C(=O)C(CC[C@@H]2OCc2ccccc2)NC(=O)[C@H](CC(C)C)NC(=O)[C@@H](NC(=O)[C@H](CCC#N)NC(=O)C(C)C)[C@@H](C)OC1=O` (some centres unmarked), the IC50 on human kallikrein 7 was found to be 3.75 nM; in assay [1], 2.5 nM. Moreover, the “% Inhibition of inflammatory swelling” value with Crl:NMRI mice (setting [2]) came out at 39%; in the assay on Crl:NMRI mice (setting [3]) it was 38%.
Regarding `CCO[C@H]1CCC2NC(=O)[C@H](CC(C)C)NC(=O)[C@@H](NC(=O)[C@H](CCC#N)NC(=O)C(C)C)[C@@H](C)OC(=O)[C@H](C(C)CC)NC(=O)[C@H](Cc3ccc(O)cc3)N(C)C(=O)[C@H](C(C)CC)N1C2=O` (some centres unmarked), the results for the IC50 (at human kallikrein 7; in assay [1]) were 5 nM and 3 nM, respectively. Besides, the entries for the “% Inhibition of inflammatory swelling” value in the assay on Crl:NMRI mice (setting [2]) and in the assay with Crl:NMRI mice (setting [3]) were 48% and 40%, respectively.
